# Test system: Bacillus subtilis ssp. shriramensis (MTCC-5674)
# Test: Antibiotic sensitivity test (antibiotic discs on T3 agar); further: key: RES - Resistant; INT - Intermediate; SEN - Sensitive
# Format: cell-based
# Conditions: antibiotic disc on T3 agar, 30° C. for 24 hours; judged against Standards
# Protocol: Different antibiotic discs were placed on the surface of the T3 agar plates labelled with the respective antibiotic. The plates were incubated at 30° C. for 24 hours.
smiles,measurement,value
CCC[C@@H]1C[C@@H](C(=O)N[C@@H]([C@H]2O[C@H](SC)[C@H](O)[C@@H](O)[C@H]2O)[C@H](C)Cl)N(C)C1 [Clindamycin],Result,RES

# Source: patent publication US10327448B2, “Bacterium of Bacillus genus and uses thereof” (priority 2014, dated 2019)
